Apparent affinities of Ab-91 variants for a coronavirus HR2 peptide

Data: MIT Lincoln Laboratory AlphaSeq set, Engelhart et al. 2022, doi:10.1038/s41597-022-01779-4, as distributed in FLAb.

Target: peptide PDVDLGDISGINAS, taken from heptad repeat 2 (HR2) of SARS-CoV-2 spike.

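The parent was found by panning a naive human phage display library on the peptide. The library (AAYL51) carries one to three amino acid substitutions per variant, with no insertions or deletions. The assay is AlphaSeq: two haploid yeast populations carry antibody and antigen on their surface. Pairs that bind mate more often; barcode pairs of the diploids are counted by sequencing. A regression on co-assayed BCL2-family reference pairs converts the normalised counts of each replicate to an apparent Kd. Mating was done three times.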

Parent: Ab-91, a human scFv built as VL, a (GGGGS)3 linker, VH. Only the CDRs of the heavy chain vary.
VL: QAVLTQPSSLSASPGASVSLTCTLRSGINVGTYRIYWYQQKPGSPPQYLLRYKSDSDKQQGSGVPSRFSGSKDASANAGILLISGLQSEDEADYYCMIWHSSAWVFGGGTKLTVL
VH: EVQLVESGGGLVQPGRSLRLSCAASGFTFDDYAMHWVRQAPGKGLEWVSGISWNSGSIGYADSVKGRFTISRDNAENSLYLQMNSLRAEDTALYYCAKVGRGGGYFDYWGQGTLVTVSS

The parent's heavy chain CDRs are GFTFDDYAMH, GISWNSGSIGYADSVK, VGRGGGYFDY; each variant's own CDRs replace them letter for letter.
The read-out is the apparent dissociation constant on a log10 scale (nM): the lower, the stronger.
A mean of the replicates is given; it leaves out those without a signal.
"not detected" means that the variant was in the library but no mating with the target was seen in any replicate; the authors take this as a sign of poor binding, and no number exists.
Background: pairings of library AAYL51 with three empty control strains gave a value in 21% of cases (median 4.54, 5th percentile 3.26). Values in that range, when seen in few replicates, are hard to tell from nonspecific mating. For each scFv, signals with the empty controls are counted beside the result.

| CDR-H1 | CDR-H2 | CDR-H3 | mean log10 Kd (nM) | replicates with signal | control signals |
|---|---|---|---|---|---|
| GFTSDDYAMH | GISWDSGSIGYADSVK | VGRIGGYFDY | not detected | 0/3 | 2/9 |
| GFTFGDYDMH | GISWNSGSIGYADSVK | VGRGGGYFDY | 4.62 | 3/3 | 6/9 |
| GFCFDDYAMH | GIMWNSGSGGYADSVK | VGRGGGYFDY | not detected | 0/3 | 1/9 |
| GFTFDMYAMH | GIGWNSGSIGYADSVK | VGGGGGYFDY | 1.34 | 3/3 | 2/9 |
| LFTFDDYAMH | GISWNSGRIGLADSVK | VGRGGGYFDY | 5.05 | 2/3 | 4/9 |
| GFTFDDYAMH | GISWNSESITYADSVK | VGRGGGYFMY | 4.62 | 2/3 | 3/9 |
| GFTFDDYPMH | GISWNSGDIGCADSVK | VGRGGGYFDY | 3.43 | 3/3 | 2/9 |
| GFTFDDYAMH | GISWNSLSIGYADQVK | VGRGGGPFDY | not detected | 0/3 | 0/9 |
| GFTFDDYAMM | GISWNSGSIGYMDSVK | VGRGGGGFDY | not detected | 0/3 | 0/9 |
| GFTFDDYAMH | GISWNSGSIGVADQVK | VGRGGGYFFY | 5.86 | 2/3 | 5/9 |
| IFTFDAMAMH | GISWNSGSIGYADSVK | VGRGGGYFDY | not detected | 0/3 | 1/9 |
| GFTFDDYAMH | GISWNHGSIGYADSSK | VGRGGWYFDY | not detected | 0/3 | 1/9 |
| GFTFSDYAMH | GISWNSGSIGYEDSVK | VGRGGGYFQY | 3.25 | 3/3 | 3/9 |
| GFTFDDYAGH | GISWNSGYIGYADSVK | VGRGGGYFDY | 5.28 | 1/3 | 0/9 |
| GFTFDDLAMH | GASWNSGSIKYADSVK | VGRGGGYFDY | not detected | 0/3 | 1/9 |
| GFTFDDYAMH | GISWNSLSIGYADSSK | VFRGGGYFDY | not detected | 0/3 | 0/9 |
| GFTFDDYAMV | GISWNSGSIGYADSVQ | VGRKGGYFDY | 4.51 | 2/3 | 2/9 |
| CFTFDDYAMH | GISWLSGSIGYADSVK | VGRSGGYFDY | 3.47 | 1/3 | 0/9 |
| GFTFDDYAMH | GISWQKGSIGYADSHK | VGRGGGYFDY | not detected | 0/3 | 0/9 |
| GFTFDDYAMH | GDSWNSGSIGYADSVK | YGRGGGVFDY | 4.59 | 3/3 | 7/9 |
| GFTFDDYAMH | GISWNSGSIGYADSVK | AQRGGGYFNY | 4.83 | 1/3 | 2/9 |
| GFTFADYAMH | GISWNSGSIGYSDSVK | VGRGGGYFDE | 0.57 | 3/3 | 0/9 |
| GFTFDCYAMH | GICWNSGSIGYADSVK | VGRGGGYFNY | not detected | 0/3 | 0/9 |
| GFTFDDYAMH | GISNNSGSIGYADSVK | VGRGGQYFSY | 3.29 | 3/3 | 4/9 |
| GYTFDDYAMH | GNSWNSGSIGYADSCK | VGRGGGYFDY | 4.29 | 1/3 | 1/9 |
| YFTFDDYAMH | GIIWNSGSIGYATSVK | VGRGGGYFDY | not detected | 0/3 | 1/9 |
| GFTFDDYAMH | GIEWNSGSIGYADSVK | VGRGGGYLDY | 5.78 | 1/3 | 4/9 |
| GFTFDDYAMH | GSSVNSGSIGYADSVK | VGRGGGYFDY | not detected | 0/3 | 6/9 |
| GFTFDDNAMH | GISWNSGSILYADSVK | VGRDGGYFDY | not detected | 0/3 | 1/9 |
| LFTFDDYAMH | GISWNSGSIGYADSVK | VERYGGYFDY | 5.60 | 1/3 | 4/9 |
| GFTFDDYAMD | GISWNSGSIGYNDSVK | VGRYGGYFDY | 4.39 | 1/3 | 2/9 |
| KFTFDDYAMH | GISWNSPSIGYADSVK | VGRGNGYFDY | not detected | 0/3 | 0/9 |
| GFTFDDYAMH | GISNNSGQIGYADSHK | VGRGGGYFDY | not detected | 0/3 | 0/9 |
| GFTFDDYAMH | GFSWNSHSIGYADSVK | VGRGTGYFDY | not detected | 0/3 | 1/9 |
| GLTFDQYAMH | GISWNSGSEGYADSVK | VGRGGGYFDY | 4.87 | 3/3 | 6/9 |
| CFTFDDTAMH | GISWNWGSIGYADSVK | VGRGGGYFDY | 4.91 | 2/3 | 0/9 |
| GHTFDDYAMH | GISWNSGAIGYADSVK | VYRGGGYFDY | 4.51 | 1/3 | 0/9 |

Further variants, results first:

| mean log10 Kd (nM) | replicates with signal | control signals | CDR-H1 | CDR-H2 | CDR-H3 |
|---|---|---|---|---|---|
| not detected | 0/3 | 0/9 | GFTFDQYAMH | GISWNSGSIGYADSVK | VGVGGGYFDM |
| 3.29 | 3/3 | 3/9 | GFDFDDYAMH | GISWNSGSIGYADSVE | VGRIGGYFDY |
| 4.19 | 2/3 | 2/9 | GFTFGDYAMD | GISWNSGSIGYALSVK | VGRGGGYFDY |
| 4.44 | 1/3 | 0/9 | GFVFDDIAMT | GISWNSGSIGYADSVK | VGRGGGYFDY |
| 3.50 | 1/3 | 4/9 | GFTFDDYAMT | GISWNSGSIGYADSVK | VMLGGGYFDY |
| not detected | 0/3 | 1/9 | GFTFDDYAMH | GISWNSGSIGYADSVK | WGRGGGYKDY |
| 3.48 | 2/3 | 1/9 | GFTFDDYAMH | GISWNSGSIGYADSVK | VGRQRGYFIY |
| not detected | 0/3 | 0/9 | GFTFDPYAKH | GISWNSGSIGYADSVA | VGRGGGYFDY |
| 5.14 | 2/3 | 2/9 | GFTFDDYAMH | GIAWNSGSIQYADPVK | VGRGGGYFDY |
| not detected | 0/3 | 0/9 | GFTFDDYRMV | GISWNSRSIGYADSVK | VGRGGGYFDY |
| 5.14 | 3/3 | 5/9 | GFTFDDYTMH | GISWNSGTIGYADSVK | VERGGGYFDY |
| not detected | 0/3 | 0/9 | GFPFDDYAMH | GISRNSGAIGYADSVK | VGRGGGYFDY |
| 5.23 | 1/3 | 1/9 | LFTFDDYAMH | GISWNSGSIGNADPVK | VGRGGGYFDY |
| not detected | 0/3 | 0/9 | YFTFDDYAMH | GISWNSGSIGYAMKVK | VGRGGGYFDY |
| not detected | 0/3 | 0/9 | GFQFTDYAMH | GISWNSGSIGYADSVK | VLRGGGYFDY |
| 4.56 | 1/3 | 2/9 | GRTFDDYASH | GISWNSGSIGYADSVK | VGRWGGYFDY |
| not detected | 0/3 | 1/9 | GFTFDDYAMH | GITWNSGIIIYADSVK | VGRGGGYFDY |
| 2.59 | 2/3 | 0/9 | KFTFDDYAMH | GISWNSGSIGYADSVK | VGRGSGYFDI |
| 5.43 | 3/3 | 6/9 | GFTFDDYAMH | GRSWNSGSIGYARSVK | VGRGGGYFDY |
| not detected | 0/3 | 2/9 | GFTFDDYWMH | GISWNSQSIGYADSVK | VGRLGGYFDY |
| 4.27 | 2/3 | 2/9 | GFTFDDYAMH | LTSWNSGSIGYADSVK | VGWGGGYFDY |
| 3.63 | 1/3 | 3/9 | GFTFDDYAMA | GISWNSCSIGYADSVK | VGRGGGYFDY |
| 3.45 | 2/3 | 0/9 | GFTFDDYAMH | GISWNSGIIGYADSFK | VGRGGGYFDY |
| not detected | 0/3 | 0/9 | GFTFDDYAMW | GISWNSGSIGYADSDK | VGRGGGYFDM |
| 5.70 | 3/3 | 8/9 | GRTFDDYAMH | GITWNSGSIGYADSVK | VGRGGGYFDP |
| not detected | 0/3 | 0/9 | GFTFDDYAMH | GISWNSALIGYADSVK | VGRGGGYFDY |
| 4.72 | 3/3 | 7/9 | GFTFDIYAQH | GISWNSGSIGYADSVK | VGRGGGYFDY |
| not detected | 0/3 | 0/9 | GFTFLDYAMH | GISWNSGSIGYADSVM | VGRNGGYFDY |
| 2.96 | 1/3 | 1/9 | GFTFDDYALH | GISWNSSSIGYADSVS | VGRGGGYFDY |
| not detected | 0/3 | 1/9 | GFTFDDYAMH | NISWNWGSIGYADSVK | VGRGGGYRDY |
| 3.14 | 3/3 | 1/9 | GFTFDDYAMH | GISWNYGSVGYADSVQ | VGRGGGYFDY |
| 1.65 | 3/3 | 6/9 | GFTFDDYAMH | GISWNSGSIGYADSVQ | EGRGGGYRDY |
| not detected | 0/3 | 2/9 | GFTFDDYAMH | DISWNSGSIGYWDEVK | VGRGGGYFDY |
| 2.27 | 3/3 | 1/9 | GFTFDDYAMH | GMSWNSGSIGYAESVK | VGRGGGYFDN |
| not detected | 0/3 | 4/9 | GFTFDDYAMH | GIFWNSGSIGYADSVE | VGRGGRYFDY |
| not detected | 0/3 | 2/9 | GFAFDDYAMH | AISWNSGSIGYADSVK | VGMGGGYFDY |
| 1.29 | 3/3 | 1/9 | GFTFHDYAMH | GISWNSGSIGYADSVC | VGRGGGYFDY |
| 1.93 | 3/3 | 2/9 | SNTFDDYAMH | GISWNSGSIGYADSVK | VGRGCGYFDY |

9 of these entries, quoted again:

| CDR-H1 | CDR-H2 | CDR-H3 | mean log10 Kd (nM) | replicates with signal | control signals |
|---|---|---|---|---|---|
| GFTFDDYAMH | GISWNSGSIGYADSVK | VGRQRGYFIY | 3.48 | 2/3 | 1/9 |
| KFTFDDYAMH | GISWNSPSIGYADSVK | VGRGNGYFDY | not detected | 0/3 | 0/9 |
| GFTFDPYAKH | GISWNSGSIGYADSVA | VGRGGGYFDY | not detected | 0/3 | 0/9 |
| LFTFDDYAMH | GISWNSGRIGLADSVK | VGRGGGYFDY | 5.05 | 2/3 | 4/9 |
| GFTFADYAMH | GISWNSGSIGYSDSVK | VGRGGGYFDE | 0.57 | 3/3 | 0/9 |
| GFTFGDYDMH | GISWNSGSIGYADSVK | VGRGGGYFDY | 4.62 | 3/3 | 6/9 |
| GFTFDDYAGH | GISWNSGYIGYADSVK | VGRGGGYFDY | 5.28 | 1/3 | 0/9 |
| GFTFDDYAMH | DISWNSGSIGYWDEVK | VGRGGGYFDY | not detected | 0/3 | 2/9 |
| GFPFDDYAMH | GISRNSGAIGYADSVK | VGRGGGYFDY | not detected | 0/3 | 0/9 |